Reference: article doi:10.1101/2023.06.24.546380

The chains behind the UniProt entries cited, without tags or fusion partners. Where a name states a change or a piece, a line headed by the entry shows the natural chain unless it says otherwise.
UniProt Q07157: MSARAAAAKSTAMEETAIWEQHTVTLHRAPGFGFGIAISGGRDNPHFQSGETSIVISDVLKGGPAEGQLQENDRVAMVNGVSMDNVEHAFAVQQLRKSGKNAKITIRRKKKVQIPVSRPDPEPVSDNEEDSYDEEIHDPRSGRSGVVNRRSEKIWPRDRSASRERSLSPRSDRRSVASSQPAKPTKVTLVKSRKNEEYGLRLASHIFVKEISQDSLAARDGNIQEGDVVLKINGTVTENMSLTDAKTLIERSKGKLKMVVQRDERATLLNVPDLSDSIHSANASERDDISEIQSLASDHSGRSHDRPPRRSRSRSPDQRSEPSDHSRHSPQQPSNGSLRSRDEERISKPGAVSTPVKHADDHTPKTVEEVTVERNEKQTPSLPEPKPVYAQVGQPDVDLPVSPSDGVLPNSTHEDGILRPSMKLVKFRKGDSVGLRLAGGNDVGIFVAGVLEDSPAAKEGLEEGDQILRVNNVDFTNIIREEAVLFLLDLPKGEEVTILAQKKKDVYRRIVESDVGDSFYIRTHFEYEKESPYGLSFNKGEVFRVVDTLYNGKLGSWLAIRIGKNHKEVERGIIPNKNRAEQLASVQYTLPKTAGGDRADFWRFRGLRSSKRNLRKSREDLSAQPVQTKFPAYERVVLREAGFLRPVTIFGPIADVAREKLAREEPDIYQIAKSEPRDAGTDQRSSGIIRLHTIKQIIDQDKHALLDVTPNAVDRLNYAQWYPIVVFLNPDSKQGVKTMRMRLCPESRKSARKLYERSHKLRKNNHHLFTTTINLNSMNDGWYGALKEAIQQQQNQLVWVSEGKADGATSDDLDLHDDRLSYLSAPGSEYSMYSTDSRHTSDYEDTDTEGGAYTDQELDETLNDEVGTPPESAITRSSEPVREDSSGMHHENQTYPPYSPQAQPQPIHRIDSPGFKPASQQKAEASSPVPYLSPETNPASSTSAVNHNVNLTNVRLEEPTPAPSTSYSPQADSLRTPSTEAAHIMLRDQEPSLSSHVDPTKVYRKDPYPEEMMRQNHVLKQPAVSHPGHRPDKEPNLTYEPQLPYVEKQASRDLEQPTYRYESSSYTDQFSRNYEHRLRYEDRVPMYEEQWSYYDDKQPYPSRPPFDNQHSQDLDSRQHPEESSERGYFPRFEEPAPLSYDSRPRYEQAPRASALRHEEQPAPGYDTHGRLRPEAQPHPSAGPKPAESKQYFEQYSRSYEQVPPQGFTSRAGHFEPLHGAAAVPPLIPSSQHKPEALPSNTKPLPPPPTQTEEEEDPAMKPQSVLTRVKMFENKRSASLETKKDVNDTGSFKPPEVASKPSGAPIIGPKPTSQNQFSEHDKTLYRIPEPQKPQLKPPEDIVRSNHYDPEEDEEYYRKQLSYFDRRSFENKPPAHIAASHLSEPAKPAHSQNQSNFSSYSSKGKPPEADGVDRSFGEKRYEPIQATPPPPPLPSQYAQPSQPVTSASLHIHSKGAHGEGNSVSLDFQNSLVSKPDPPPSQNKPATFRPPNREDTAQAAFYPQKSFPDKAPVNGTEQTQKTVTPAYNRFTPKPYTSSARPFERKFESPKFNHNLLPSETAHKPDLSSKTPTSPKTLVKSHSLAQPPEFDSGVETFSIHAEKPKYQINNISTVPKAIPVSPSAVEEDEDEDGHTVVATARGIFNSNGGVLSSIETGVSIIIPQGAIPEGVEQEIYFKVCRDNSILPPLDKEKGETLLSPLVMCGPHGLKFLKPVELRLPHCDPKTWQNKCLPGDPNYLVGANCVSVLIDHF

Target: ZO1 mutant lacking the actin-binding-domain (UniProt Q07157)
Experiment: partitioning of actin into ZO1 surface condensates on supported lipid bilayers

“G-actin-Alexa Fluor 647 (from UniProt P68135 1-377) (natural protein)” gave a fold reduction of enrichment against ZO1-WT condensates of 2 fold reduced.
